Assay results from PubChem BioAssay AID488839 (Broad Institute, 2010).
Some of the results follow. Active and inactive are the calls of the source.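 Rule for the calls: active = highest replicate inhibition of at least 50% and at least 75% of replicates reaching 50%; inconclusive = only one of the two criteria met; inactive = both criteria failed.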

Sequences of proteins named here, by UniProt entry; tags and fusion partners are left off. A change or cut given only in a name is not applied to a line headed by its entry.
UniProt Q00535, whole entry, looked up: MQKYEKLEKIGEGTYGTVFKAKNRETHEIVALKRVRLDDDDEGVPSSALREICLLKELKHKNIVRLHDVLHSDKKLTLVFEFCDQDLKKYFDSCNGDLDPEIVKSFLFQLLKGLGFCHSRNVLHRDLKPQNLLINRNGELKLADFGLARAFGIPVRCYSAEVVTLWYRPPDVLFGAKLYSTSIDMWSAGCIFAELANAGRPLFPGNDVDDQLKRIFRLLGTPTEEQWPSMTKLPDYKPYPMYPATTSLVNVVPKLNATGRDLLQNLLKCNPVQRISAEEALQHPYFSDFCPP
UniProt Q15078: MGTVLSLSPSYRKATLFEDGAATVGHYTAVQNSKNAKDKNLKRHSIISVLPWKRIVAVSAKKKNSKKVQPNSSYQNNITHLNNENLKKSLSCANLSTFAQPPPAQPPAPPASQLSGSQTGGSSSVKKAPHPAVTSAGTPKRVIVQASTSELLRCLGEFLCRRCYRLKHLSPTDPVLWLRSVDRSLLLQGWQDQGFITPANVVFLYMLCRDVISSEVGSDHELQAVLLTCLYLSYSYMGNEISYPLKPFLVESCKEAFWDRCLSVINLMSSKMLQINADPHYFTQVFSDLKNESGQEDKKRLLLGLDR

Biological target: Cyclin-dependent kinase 5 (Homo sapiens) + Cyclin-dependent kinase 5 activator 1 (Homo sapiens) (UniProt Q00535+Q15078)
Assay: CDK5/p35 phosphotransfer blockade – biochemical, single concentration, primary screen (AID 488839);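 note: plate controls were DMSO neutral control for no effect and GW8510 at 10 µM for full effect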
Details: Recombinant CDK5/p35, ADP-Glo luminescence, 60 min; at 10 µM; stronger effect = higher value

| Compound | inhibition |
| --- | --- |
| O=[N+]([O-])c1cc([N+](=O)[O-])c(-c2ccn[nH]2)s1 | inactive: -2.06% |
| CC(C)NC(=O)NP(=O)(Oc1ccccc1)Oc1ccccc1 | inactive: -0.966% |
| CCN(CC)C(=S)SC(NC=O)C(Cl)(Cl)Cl (centres undefined) | inactive: 0.245% |
| O=C(OC1CN2CCC1CC2)c1cccc2[nH]cnc12 (centres undefined) | inactive: 1.03% |
| ClCCSc1nnc(-c2cccnc2)o1 | inactive: -1.09% |
| COC(=O)C1(C)COP(=O)(N2CCCCCC2)OC1 (centres undefined) | inactive: 0.27% |
| CC(C)c1ccc(OP(=O)(Nc2ccccn2)Oc2ccccc2F)cc1 (centres undefined) | inactive: -0.32% |
| Cc1ccc(OP(=O)(Nc2ccc([N+](=O)[O-])cn2)Oc2ccc(C)cc2)cc1 | inactive: 0.576% |
| Cc1ccc2nc3c(c(C)c2c1)CC(C(Cl)Cl)S3 (centres undefined) | inactive: -3.28% |
| O=[N+]([O-])c1ccc(-c2cc([N+](=O)[O-])c(O)c([N+](=O)[O-])c2)cc1 | inactive: 0.708% |
| COc1cc(C(=O)NCC2(N3CCOCC3)CCCCC2)ccc1OCC(C)C | inactive: 0.394% |
| O=[As](O)(c1ccc(O)cc1)c1ccccc1O | inactive: 2.86% |
| C[As](=O)(O)c1cccc(C(=O)O)c1 | inactive: -0.663% |
| O=[N+]([O-])c1cc(Oc2ccc([N+](=O)[O-])cc2C(F)(F)F)cc([N+](=O)[O-])c1 | inactive: 0.577% |
| COc1ccc(N/C(=N/P(=O)(N2CCOCC2)N2CCOCC2)N2CCOCC2)cc1 | inactive: -0.264% |
| O=P1(N(CCCl)CCCl)OCCCN1CCCl (centres undefined) | inactive: 1.51% |
| O=P1(N(CCCl)CCCl)Nc2ccccc2N1 | inactive: 0.657% |
| COc1cc(I)ccc1[As](=O)(O)O | inactive: 0.83% |
| COc1ccc2nc(NP(=O)(c3ccccc3)c3ccccc3)sc2c1 | inactive: -0.226% |
| Cc1c2c(nc3ccccc13)SC(C(Cl)Cl)C2 (centres undefined) | inactive: 1.55% |
| Cc1cc(=O)[nH]c(N[N+](=O)[O-])n1 | inactive: -0.219% |
| O=C(OC1CN2CCC1CC2)C12CC3CC(CC(C3)C1)C2 (centres undefined) | inactive: 1.06% |

| Compound | inhibition |
| --- | --- |
| CCC(C)N(CC(C)C)C(=S)SC(NC(C)=O)C(Cl)(Cl)Cl (centres undefined) | inactive: 0.175% |
| O=C(OC1CN2CCC1CC2)c1cccc([N+](=O)[O-])c1 (centres undefined) | inactive: -0.814% |
| CCOC(=O)c1ccc(NC(=O)C(C)(CCl)SC)cc1 (centres undefined) | inactive: -3.49% |
| O=C(Nc1ccncc1[N+](=O)[O-])c1ccc([N+](=O)[O-])cc1[N+](=O)[O-] | inactive: 1.31% |
| O=C(COc1ccccc1)OC1CN2CCC1CC2 (centres undefined) | inactive: 0.0117% |
| COP1(=S)c2c(C)nn(CCC#N)c2N=C(c2ccc(F)cc2)N1C (centres undefined) | inactive: 0.19% |
| O=P(Nc1ccccn1)(c1cccc2ccccc12)c1cccc2ccccc12 | inactive: 1.03% |
| Cc1cc(SC(NC=O)C(Cl)(Cl)Cl)ncn1 (centres undefined) | inactive: 0.117% |
| O=[N+]([O-])c1ccc(Nc2ccc(Oc3ccc([N+](=O)[O-])cc3[N+](=O)[O-])cc2)c([N+](=O)[O-])c1 | inactive: 0.4% |
| CCOC(=O)Nc1cccc([As](=O)(O)O)c1 | inactive: 3.19% |
| Cc1cc(SC(NC(=O)c2ccccc2)C(Cl)(Cl)Cl)nc(C(C)C)n1 (centres undefined) | inactive: 0.729% |
| CCCCOc1ccc(C(=O)NCC2(N3CCCCC3)CCCCC2)cc1OC | inactive: -2.36% |
| CCOC(=O)Nc1ccc([As](=O)(O)O)c(O)c1 | inactive: -0.842% |
| CC1CCNP(=O)(N(CCCl)CCCl)O1 (centres undefined) | inactive: -0.0847% |
| Nc1cccc([As](=O)(O)c2ccccc2)c1 | inactive: -0.218% |
| Cc1ccc(OCC(=O)OC2CN3CCC2CC3)cc1 (centres undefined) | inactive: 0.112% |
| O=[As](O)(c1cccs1)c1cccs1 | inactive: 0.172% |
| O=P1(Nc2ccc(Br)cn2)COc2ccccc2OC1 | inactive: -1.18% |
| NS(=O)(=O)c1cccc(NC(=O)COC(=O)C(O)(c2ccccc2)c2ccccc2)c1 | inactive: 0.161% |
| O=P1(Nc2ncccn2)COc2ccccc2OC1 | inactive: 1.52% |
| CN(C)C1(CNC(=O)c2ccc(S(C)(=O)=O)cc2)CCCCC1 | inactive: 0.612% |
| CCCC1OP(=O)(Nc2ccccc2)OCC1CC (centres undefined) | inactive: 1.32% |

| Compound | inhibition |
| --- | --- |
| O=C(/C=C/c1ccccc1)OC1CN2CCC1CC2 (centres undefined) | inactive: -0.849% |
| CC1CCC(C(C)C)C(OP(=O)(Nc2ccccn2)c2ccccc2)C1 (centres undefined) | inactive: 1.1% |
| Cc1ccc(C(=O)OC2CN3CCC2CC3)cc1 (centres undefined) | inactive: 0.842% |
| Cc1nn(-c2ccccc2)c2c1P(=O)(N1CCOCC1)N(C)C(c1ccccc1)=N2 (centres undefined) | inactive: 0.11% |
| CC(C)/C=N\N=C(\N)N[N+](=O)[O-] | inactive: -6.93% |
| CN(C(=O)Cc1ccc(Cl)c(Cl)c1)[C@@H]1CCCC[C@H]1N1CCCC1 | inactive: -1.52% |
| CC1(CBr)Cn2c(nc3ccccc3c2=O)S1 (centres undefined) | inactive: 0.132% |
| COc1ccccc1CNC(=O)COC(=O)C(O)(c1ccccc1)c1ccccc1 | inactive: 0.0123% |
| CC(C)(C)C(=O)NC(Sc1ncccn1)C(Cl)(Cl)Cl (centres undefined) | inactive: 1.9% |
| Clc1n[nH]nc1-c1nn[nH][15n]1 | inactive: -1.12% |
| CCOP(=O)(NC(=NC(C)c1ccccc1)NC(C)c1ccccc1)OCC (centres undefined) | inactive: 0.257% |
| O=P1(Nc2ccccn2)COc2ccccc2OC1 | inactive: -0.954% |
| CCC1=CC2Cc3nc4ccc(Cl)cc4c(N)c3C(C1)C2 (centres undefined) | inactive: 2.47% |
| CCOP(=O)(Nc1ccc(C)cn1)OCC | inactive: 0.381% |
| CCOP(=O)(Nc1cccc2ccccc12)OCC | inactive: -0.401% |
| COc1cc(C2NCCC3(OCCO3)C2(C)C)cc(OC)c1OC (centres undefined) | inactive: -6.26% |
| Cc1ccc(NCCc2c([N+](=O)[O-])cc([N+](=O)[O-])cc2[N+](=O)[O-])cc1 | inactive: -4.81% |
| Nc1cccc2c([As](=O)(O)O)cccc12 | inactive: -0.269% |
| CCCOP(=S)(Nc1nc(N)cc(=O)[nH]1)OCCC | inactive: -2.32% |
| Cc1cccc(OCC(=O)OC2CN3CCC2CC3)c1 (centres undefined) | inactive: 2.56% |
